# Experimental data taken from US20120135923A1, “Use of Melanocortins to Treat Dyslipidemia” (IPSEN PHARMA, S.A.S., priority 2009, published 2012).
# Protein sequences, listed by entry. Tags and fused reporters are not part of them.
# human melanocortin receptor subtype 4 (hMC4-R) (human), P32245, UniProt P32245, whole entry: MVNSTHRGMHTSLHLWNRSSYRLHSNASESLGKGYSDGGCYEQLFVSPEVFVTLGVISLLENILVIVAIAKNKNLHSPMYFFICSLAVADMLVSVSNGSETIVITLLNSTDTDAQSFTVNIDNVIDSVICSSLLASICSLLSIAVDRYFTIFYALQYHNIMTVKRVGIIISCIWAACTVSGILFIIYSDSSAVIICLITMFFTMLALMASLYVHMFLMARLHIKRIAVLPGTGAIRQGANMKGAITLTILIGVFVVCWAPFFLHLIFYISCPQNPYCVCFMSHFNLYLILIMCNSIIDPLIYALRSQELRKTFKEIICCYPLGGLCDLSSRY
# Assays:
# Assay in all cases: [125I]-NDP-α-MSH competition, membranes
# [1] = target: human melanocortin receptor subtype 3 (hMC3-R) (human), P41968
# [2] = target: human melanocortin receptor subtype 4 (hMC4-R) (human), P32245
# [3] = target: human melanocortin receptor subtype 1 (hMC1-R) (human), Q01726
Binder,Ki [1] [nM],Ki [2] [nM],Ki [3] [nM]
VCAHFRWC (modifications not checked) [c[Hydantoin(C(O)-(Val-Cys))-D-Ala-His-D-Phe-Arg-Trp-Cys]-NH2],730,34.5,21.2
YRCAHFRWC (modifications not checked) [Ac-Tyr-Arg-c(Cys-D-Ala-His-D-Phe-Arg-Trp-Cys)-NH2],21.2,–,–

# More lines, in order of falling Ki [1], values ahead:
Ki [1] [nM],Ki [2] [nM],Ki [3] [nM],Binder
1760,–,–,ICAHFRWC (modifications not checked) [c[Hydantoin(C(O)-(Ile-Cys))-D-Ala-His-D-Phe-Arg-Trp-Cys]-NH2]
1550,27.9,47.4,LCAHFRWC (modifications not checked) [c[Hydantoin(C(O)-(Leu-Cys))-D-Ala-His-D-Phe-Arg-Trp-Cys]-NH2]
